The test system of the experiment is HIV in the HTLV-1 transformed cell line MT-4. The experiment is described as follows: organism not typed. Format: cell-based. As to conditions: MT4, 96 h, MT-4 cells; luciferase/cell titer glo readout after 96 hours; 10 point dose response. (In general: Cellular ATP, detected with luciferase, serves as a proxy for viable cell number.)

The structures appear in SMILES notation.

The IC50 is the concentration at which inhibition is half-maximal. As to `Cc1c(-c2c(C)c3c(c(C)c2[C@H](OC(C)(C)C)C(=O)O)CN(C(=O)c2cccc(F)c2)C3)cc(Cl)c2c1CCCO2` (atropisomer, axis not shown; (M)) [Example 295, (S)-2-(tert-butoxy)-2-((M)-6-(8-chloro-5-methylchroman-6-yl)-2-(3-fluorobenzoyl)-4,7-dimethylisoindolin-5-yl)acetic acid], the IC50 is 9 nM. Next, `Cc1ccc(-c2c(C)c3c(c(C)c2[C@H](OC(C)(C)C)C(=O)O)CN(C(=O)c2cccc(F)c2)C3)cc1` [Example 108, (S)-2-(tert-butoxy)-2-(2-(3-fluorobenzoyl)-4,7-dimethyl-6-(p-tolyl)isoindolin-5-yl)acetic acid]: 6 nM; `Cc1c2c(c(C)c([C@H](OC(C)(C)C)C(=O)O)c1-c1ccc(Cl)cc1)CN(C(=O)c1cccc(F)c1)C2` [Example 133, (S)-2-(tert-butoxy)-2-(6-(4-chlorophenyl)-2-(3-fluorobenzoyl)-4,7-dimethylisoindolin-5-yl)acetic acid]: 5 nM; `Cc1cc(Cl)ccc1-c1c(C)c2c(c(C)c1[C@H](OC(C)(C)C)C(=O)O)CN(C(=O)c1cccc(F)c1)C2` [Example 296, (2S)-2-(tert-butoxy)-2-(6-(4-chloro-2-methylphenyl)-2-(3-fluorobenzoyl)-4,7-dimethylisoindolin-5-yl)acetic acid]: 5 nM.

For the molecule `Cc1ccc(-c2c(C)c3c(c(C)c2[C@H](OC(C)(C)C)C(=O)O)CN(C(=O)c2cccc(F)c2)C3)c(O)c1` [Example 297, (2S)-2-(tert-butoxy)-2-(2-(3-fluorobenzoyl)-6-(2-hydroxy-4-methylphenyl)-4,7-dimethylisoindolin-5-yl)acetic acid], inhibition was half-maximal at 42 nM (IC50). The result for `COc1ccc(-c2c(C)c3c(c(C)c2[C@H](OC(C)(C)C)C(=O)O)CN(C(=O)c2cccc(F)c2)C3)c(C)c1` [Example 298, (2S)-2-(tert-butoxy)-2-(2-(3-fluorobenzoyl)-6-(4-methoxy-2-methylphenyl)-4,7-dimethylisoindolin-5-yl)acetic acid] reads 24 nM; that for `Cc1c2c(c(C)c([C@H](OC(C)(C)C)C(=O)O)c1-c1ccc(Cl)c3cccnc13)CN(C(=O)c1cccc(F)c1)C2` [Example 300, (2S)-2-(tert-butoxy)-2-(6-(5-chloroquinolin-8-yl)-2-(3-fluorobenzoyl)-4,7-dimethylisoindolin-5-yl)acetic acid], 40 nM.
